Earlier results, collected in patent publication US20220304980A1, “METERED DOSING COMPOSITIONS AND METHODS OF USE OF P[…]” (SW Holdings, Inc, priority 2019, published 2022).

Test system: 5-HT2A/2C receptor
Settings: cited from earlier work

SMILES: CC[C@@H](CO)NC(=O)[C@@H]1C=C2c3cccc4c3c(cn4C)C[C@H]2N(C)C1 [Methysergide]
- effect on serotonin actions: inhibits the vasoconstrictive and pressor effects of serotonin as well as the serotonin actions on extravascular smooth muscle
